“Also recorded” adds a separate entry of the source.
Molecular target: T1, RIP1 (Homo sapiens, UniProt Q13546)
T1 construct: RIP has been immunoprecipitated (IP) from lysates of WT and RIP-deficient Jurkat cells using agarose-conjugated anti-RIP antibody; endogenous in cells; host or cells: Jurkat (wild type)
T1 sequence (Q13546 1-671): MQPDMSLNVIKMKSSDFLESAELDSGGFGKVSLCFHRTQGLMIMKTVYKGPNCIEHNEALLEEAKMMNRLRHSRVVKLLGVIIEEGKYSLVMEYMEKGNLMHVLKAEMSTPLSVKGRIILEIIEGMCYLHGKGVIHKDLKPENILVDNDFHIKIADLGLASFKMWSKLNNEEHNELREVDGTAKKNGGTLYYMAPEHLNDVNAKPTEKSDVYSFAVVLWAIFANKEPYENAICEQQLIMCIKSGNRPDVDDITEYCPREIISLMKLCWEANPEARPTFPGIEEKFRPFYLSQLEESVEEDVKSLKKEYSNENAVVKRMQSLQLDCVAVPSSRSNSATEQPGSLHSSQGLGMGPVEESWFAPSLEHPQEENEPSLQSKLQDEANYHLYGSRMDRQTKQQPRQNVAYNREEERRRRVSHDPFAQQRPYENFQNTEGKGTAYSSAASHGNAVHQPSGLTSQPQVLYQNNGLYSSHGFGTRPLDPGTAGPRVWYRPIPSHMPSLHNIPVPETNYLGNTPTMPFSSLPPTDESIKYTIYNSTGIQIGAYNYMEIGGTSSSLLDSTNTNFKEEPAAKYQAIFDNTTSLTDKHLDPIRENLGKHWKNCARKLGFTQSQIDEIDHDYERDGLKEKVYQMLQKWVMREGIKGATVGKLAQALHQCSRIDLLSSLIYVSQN
Assay: In vitro kinase assay: autophosphorylation of immunoprecipitated RIP1
Type: biochemical
Details: radioactive ATP, 30 min at 30° C., autoradiography

Substance: methylthiohydantoin-tryptophane [Nec-1]
- inhibition of RIP1 autophosphorylation, in words: inhibits the autophosphorylation of RIP1; also recorded: inhibited the autophosphorylation of RIP1 in vitro

Reference: patent publication US20130158024A1, “TRICYCLIC NECROSTATIN COMPOUNDS” (priority 2005, published 2013)
